Article PMC8378340 (ACS Chemical Neuroscience, 2021)

Assay: Analytical RP-HPLC retention time as measure of hydrophobicity
Assay type: physicochemical
Settings: same RP-HPLC conditions; effect of Swedish mutation, increased hydrophobicity

With “IKTEEISEVNL∼DAEFRHDSGYEVHHQK∼LVFFAED [APP-Y2 (7)]” the “longer retention time (tR) compared to the mutation-free APP-Y1 peptide 5” value was 0.6 min.
